Experimental data: ChEMBL document CHEMBL1138974 (Bioorg Med Chem Lett, 2006)

Organism: Mus musculus
Assay: Ratio of drug level in brain against plasma in mouse
Conditions: read-out: BPR

## O=C1NC[C@@H](c2ccccc2)C12CCN(C1CCCCC1c1ccccc1)CC2 (stereo in doubt; 27)
  Kp: 4.1
